The assay concerns osteoarthritis pain. Put plainly: Four daily dose treatments of osteoarthritis, efficacy (Example 11). Format: in vivo, human. Particulars: before capsaicin treatment, on Tramadol 50-100 mg tid; pain scale.

The results in this text go back to patent publication US11737994B2, “Topical compositions for pain relief, manufacture and use” (priority 2014, dated 2023).

Structures are written as SMILES.

As to `COc1cccc(C2(O)CCCCC2CN(C)C)c1` (centres unmarked), the Pain level result is given as “approximately 4” and the “Sharp shooting pains, pain level” value is listed as 8-9.
